Source: article PMC5572205 (ACS chemical neuroscience, 2015)

Amino acid sequences for entries named in this document (tags omitted). A change or cut given only in a name is not applied to a line headed by its entry.
UniProt P41146: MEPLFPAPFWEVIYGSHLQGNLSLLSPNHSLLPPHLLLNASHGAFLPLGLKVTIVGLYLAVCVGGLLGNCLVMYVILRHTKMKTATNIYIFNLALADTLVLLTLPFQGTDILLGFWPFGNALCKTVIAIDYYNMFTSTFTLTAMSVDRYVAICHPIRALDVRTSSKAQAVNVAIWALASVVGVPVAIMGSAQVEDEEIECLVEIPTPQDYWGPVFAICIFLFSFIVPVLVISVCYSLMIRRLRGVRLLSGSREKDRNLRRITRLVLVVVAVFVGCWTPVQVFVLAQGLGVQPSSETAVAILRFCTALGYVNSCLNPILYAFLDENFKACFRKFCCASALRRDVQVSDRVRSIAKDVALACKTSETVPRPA

Assays:
[1] = biological target: NOP receptor (arrestin3 recruitment) (Homo sapiens, UniProt P41146); details: BRET arrestin3 recruitment; mean ± SEM
human NOP receptor = human NOP receptor (Homo sapiens, UniProt P41146); details: mean ± SEM, three to four experiments in triplicate

Substance: nociceptin/orphanin FQ [N/OFQ]
- arrestin3 % of N/OFQ EMAX [1]: 100 ± 12%
- cAMP mobilization % of N/OFQ EMAX (human NOP receptor): 100 ± 4%
